## Apparent affinities of Ab-14 variants for a coronavirus HR2 peptide

From the AlphaSeq antibody data of Li et al. 2023 (doi:10.1038/s41467-023-39022-2), copy in the FLAb collection.

All variants were tested on one target, the spike HR2 peptide PDVDLGDISGINAS (SARS-CoV-2).

Parent: Ab-14, a human scFv built as VH, three GGGGS repeats, VL. Only the CDRs of the light chain vary.
VH: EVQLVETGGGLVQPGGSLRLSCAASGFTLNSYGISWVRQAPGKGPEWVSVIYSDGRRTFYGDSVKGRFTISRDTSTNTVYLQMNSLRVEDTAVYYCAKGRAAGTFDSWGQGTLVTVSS
VL: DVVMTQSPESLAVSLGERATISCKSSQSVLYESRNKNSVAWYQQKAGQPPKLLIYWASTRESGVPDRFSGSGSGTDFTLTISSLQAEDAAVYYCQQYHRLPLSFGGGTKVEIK

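The starting antibody came from a phage panning campaign against this peptide. The variants were designed computationally from a first round of random CDR variants and then made and measured. Group labels follow the data file (Ctrl: baseline library sampled from a position-specific scoring matrix, with some repeated check sequences; En: ensemble of fine-tuned language models; GP: Gaussian process model; HC: hill climbing; Gen: genetic algorithm; Gibbs: Gibbs sampling; a sequence that several methods proposed may carry one label only). In AlphaSeq, yeast of one mating type display the scFv and yeast of the other type display the target. Pairs that bind mate more often; barcode pairs of the diploids are counted by sequencing. Read counts were normalised to the haploid input and turned into Kd by a linear fit to BCL2-family pairs of known affinity, for each replicate. Each pool was mated in six replicate cultures.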

Variants are written as CDR1, CDR2 and CDR3 of the light chain (limits as in the source). Parent: KSSQSVLYESRNKNSVA, WASTRES, QQYHRLPLS. The read-out is the apparent dissociation constant on a log10 scale (nM): the lower, the stronger. Replicates are averaged; those with no signal do not enter the mean. Where no diploid with the target was found in any replicate, the entry reads "nd": below detection, most likely a poor binder, though not proof of it. Of ten entries with the parent sequence, four were seen in most replicates (averages 0.34 to 2.37), three in one and three in none, so single entries are noisy.

The variant KLSQVTEYESRNKNNVA / DLTMRGS / QDYHRLPLS [En_HC] gave -0.24 (6 of 6 replicates).
The variant KIGATLNQLMHKKNNVA / DLVEREN / QQYFRLPLS [En_Gen] gave nd (0 of 6 replicates).
The variant TISQSMLMMNQFKNSVA / QASTRES / QCYDRLPLS [En_HC] gave 1.79 (3 of 6 replicates).
The variant MISQVMNTLTHEGNNVA / DLAEREK / QQYFRLPLS [En_Gen] gave 1.43 (5 of 6 replicates).
The variant IVSQLMIWGMHHKNSIA / EAQTRIN / QQYDRLPLF [En_Gen] gave nd (0 of 6 replicates).
The variant KIDMSLNYESVALDSIA / EEVMHTA / QQYDRLPLF [En_Gibbs] gave 1.72 (1 of 6 replicates).
The variant TISGVMQQMSHSKNNVA / EVSTRLD / QQYFRLPLE [En_Gen] gave 0.86 (6 of 6 replicates).
The variant KLSQMWLYESRNKNSVA / NASTRES / QQYHRLPLS [GP_Gen] gave -0.48 (6 of 6 replicates).
The variant KVSQSWLYESRNKNSVA / GASTREN / QQYHRLPLS [GP_HC] gave 0.35 (6 of 6 replicates).
The variant KAAQSWGYESRNKWSVA / NASTRES / QQYHRLPLS [GP_Gibbs] gave -0.16 (6 of 6 replicates).
The variant KSSQSVLYQSRNKNSVA / WASTRES / QQPHRLPLS [Ctrl] gave nd (0 of 6 replicates).
The variant TISQMSTLFSQSINNVA / EVSTRLN / QQYDRLPLV [En_Gen] gave 0.58 (6 of 6 replicates).
The variant KLDQGHLYESRNKNSVA / GASTRES / QQYHRLPLS [GP_HC] gave 0.22 (6 of 6 replicates).
The variant VLMQSVLYESRNKNSVA / HASLRED / QQYHRLPLS [GP_HC] gave 1.42 (4 of 6 replicates).
The variant KFSQSWLYESRNKNSVA / GASTREN / QQYHRLPLS [GP_HC] gave -0.68 (6 of 6 replicates).

Continued, with the values leading:

Result 1.50 (6 of 6 replicates), variant KMRVSLLQGIYRSDSIA / STDIRVL / QQYHHLPLS [En_Gibbs].
Result 0.99 (6 of 6 replicates), variant KMSQSVLMESRNSNSVA / DASTRES / QQYHRLPLS [GP_Gen].
Result -0.25 (6 of 6 replicates), variant KLQQFYEGESRNKNSVA / SASTRES / QQYHRLPLS [GP_Gibbs].
Result -0.08 (6 of 6 replicates), variant KLSMMVDYGDRNKNSVA / HASTRES / QQYHRLPLS [GP_Gibbs].
Result 0.89 (6 of 6 replicates), variant KLRMSTLYESRNKNSVA / AASTRES / QQYHRLPLS [GP_HC].
Result 1.03 (6 of 6 replicates), variant KISGQYRYESLSKNNIA / EAQTRLK / QQYHRLPLS [En_HC].
Result 0.86 (6 of 6 replicates), variant HMSALTLGGMRMRNSVA / QMTTREN / QQYDRLPLT [En_Gen].
Result -0.42 (6 of 6 replicates), variant KSSQSWEYESRNKNSVA / GASTRES / QQYHRLPLS [GP_HC].
Result 0.33 (6 of 6 replicates), variant KLVQSWLYESRNKNSVA / NASQRES / QQYHRLPLS [GP_Gen].
Result 1.19 (6 of 6 replicates), variant KLQQSEEYESRNFNSVA / EASCRNK / QQYHRLPLS [GP_Gibbs].
Result -0.13 (6 of 6 replicates), variant KVGQGVLYESRNKNSVA / GASQRCS / QQYHRLPLS [GP_HC].
Result -0.06 (6 of 6 replicates), variant KLPQSYLYESRNKNSVA / SASTRES / QQYHRLPLS [GP_Gen].
Result 2.72 (3 of 6 replicates), variant KLSGLMASSKFAKNNVA / ENNTREY / QQYDRLPLS [En_Gen].
Result 3.71 (3 of 6 replicates), variant KVSEFMKGLMMRKDSIA / DNNTRNS / QQYDRLPLS [En_Gen].
Result -0.32 (6 of 6 replicates), variant KLPQLVLYESRNKNSVA / NASTRES / QQYHRLPLS [GP_Gen].
Result 0.81 (6 of 6 replicates), variant MLSHVADISSKNRNSVA / EMTTREN / QQYDRLPLI [En_Gen].

The opening 3 entries, copied out:

For KLSQVTEYESRNKNNVA / DLTMRGS / QDYHRLPLS [En_HC], the assay gave -0.24 (6 of 6 replicates).
For KIGATLNQLMHKKNNVA / DLVEREN / QQYFRLPLS [En_Gen], the assay gave nd (0 of 6 replicates).
For TISQSMLMMNQFKNSVA / QASTRES / QCYDRLPLS [En_HC], the assay gave 1.79 (3 of 6 replicates).

Values of this round are not directly comparable with the first-round values of the same sequences. Background: pairings of all light chain designs with three empty control strains gave a value in 4% of cases (median 2.64, 5th percentile 1.59). Values in that range, when seen in few replicates, are hard to tell from nonspecific mating. The authors' rule: three or more of the six replicates give a measured affinity, fewer mean a poor binder.